According to PubChem BioAssay AID435005 (Broad Institute, 2010):
The entries are a selection whose mix differs from that of the whole data set. Some salts or complexes appear as unconnected parts, following the source record. Activity calls are given as the source filed them.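 Rule for the calls: active = Every replicate reaches about 75%, or at least half do and their mean reaches it too (limit read from the data); inconclusive = At least half of replicates reach the limit but their mean does not; inactive = Under half of replicates reach the limit.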

Assay: INS-1E beta cell survival under cytokines – luminescence, primary screen (AID 435005);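 note: 0% = cytokine-treated negative control wells and 100% = positive control rescue; higher means more ATP so stronger rescue from cytokine killing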
Conditions: INS-1E cytokine-induced death, ATP luminescence, 48 h; active compounds read high; percent of positive-control rescue, neutral wells zero; concentration not given here

Structure (SMILES) | protection from apoptosis
C(Cc1nn[nH]n1)Cc1nn[nH]n1 | inactive: -2.84%
Nc1ccc([As](=O)(O)c2ccc([N+](=O)[O-])cc2)cc1 | inactive: 1.7%
O=C(OC1CN2CCC1CC2)c1cccc(Cl)c1 (centres undefined) | inactive: -5.33%
COc1ccc(OP(C)(=O)Nc2cccc(Br)c2)cc1 (centres undefined) | inactive: -0.396%
CN(C)C1(CNC(=O)c2ccc(Cl)c(S(N)(=O)=O)c2)CCCCC1 | inactive: -5.14%
O=P(Nc1ccccn1)(c1ccc(Br)cc1)c1ccc(Br)cc1 | inactive: -2.92%
O=P(Nc1nc2ccccc2s1)(c1ccccc1)c1ccccc1 | inactive: -3.65%
CN(C)CCOC(=O)C(O)(c1ccccc1)C1CCCCC1 (centres undefined) | inactive: -5.72%
C[C@H]1OP(=O)(Oc2ccccc2)[C@H](O)[C@H](O)[C@H]1N=[N+]=[N-] (some centres undefined) | inactive: 0.522%
COC(=O)c1cc2c(s1)N=C(c1ccccc1)N(C)P2(=O)N1CCOCC1 (centres undefined) | inactive: -4.89%
CC(=O)NC(SC(=S)N(CC(C)C)CC(C)C)C(Cl)(Cl)Cl (centres undefined) | inactive: 34.5%
Cc1ccc(OP(=O)(Nc2ccccn2)Oc2ccc(C)cc2)cc1 | inactive: 3.2%
O=C(OC1CN2CCC1CC2)c1ccccc1 (centres undefined) | inactive: -1.45%
CCC(=O)N1C2C3N(C(=O)CC)C1C1N(C(=O)CC)C(C(N1C(=O)CC)N3C(=O)CC)N2C(=O)CC | inactive: 1.07%
CCN(CC)CCCOC(=O)C(O)(c1ccccc1)C1CCCCC1 (centres undefined) | inactive: 1.22%
CP(=O)(Nc1ccccc1)Oc1ccc(F)cc1 (centres undefined) | inactive: -1.18%
CC(NC(=O)COC(=O)C(O)(c1ccccc1)c1ccccc1)c1ccccc1 (centres undefined) | inactive: -2.78%
Cc1ccccc1OP(=O)(Nc1ccccn1)Oc1ccccc1C | inactive: 4.74%
O=[N+]([O-])c1cc([N+](=O)[O-])c(OC2CCCCC2O)c([N+](=O)[O-])c1 (centres undefined) | inactive: 6.85%
CCCCCOc1ccc(NP(C)(=O)Oc2ccc(Cl)cc2Cl)cc1 (centres undefined) | inactive: -3.99%
CN(C)C(=O)Oc1noc2ccccc12 | inactive: -6.3%
O=C(NC1CCS(=O)(=O)C1)NP(=S)(Oc1ccccc1)Oc1ccccc1 (centres undefined) | inactive: -0.394%
CCNC(=S)/N=C(\N)N[N+](=O)[O-] | inactive: -5.49%
c1ccc(-c2nn[nH]n2)c(-c2nn[nH]n2)c1 | inactive: -5.6%
CCOC(=O)NC(Sc1ccccc1)C(Cl)(Cl)Cl (centres undefined) | inactive: -19.1%

Structure (SMILES) | protection from apoptosis
CCOC(=O)c1ccc(NP(C)(=O)Oc2ccc(F)cc2)cc1 (centres undefined) | inactive: -11.1%
COc1ccc(OP(C)(=O)Nc2ccc(SC(F)(F)F)cc2)cc1 (centres undefined) | inactive: -3.43%
CC(=O)c1ccc(N2CC2c2ccncc2)cc1 (centres undefined) | inactive: 0.749%
C[C@H]1OP(=O)(Oc2ccccc2)C[C@@H]2O[C@@H]21 (some centres undefined) | inactive: 1.66%
C[C@@H]1C=CCP(=O)(Oc2ccccc2)O1 (some centres undefined) | inactive: -6.8%
CC(=O)Nc1ccc([As](=O)(O)O)c(O)c1 | inactive: 4.25%
COc1ccc2c(c1O)-c1c(O)c(OC)cc3c1[C@H](C2)[N+](C)(C)CC3.O=[N+]([O-])c1cc([N+](=O)[O-])c([O-])c([N+](=O)[O-])c1[O-] | inactive: -7.1%
CC(=O)Nc1ccc(Oc2c([N+](=O)[O-])cc([N+](=O)[O-])cc2[N+](=O)[O-])cc1 | inactive: -5.81%
O=P1(Nc2nc3ccc(Cl)cc3s2)COc2ccccc2O1 (centres undefined) | inactive: -7.52%
CP(=O)(Nc1ccccc1F)Oc1ccccc1 (centres undefined) | inactive: -7.15%
CC(C)(C)C(=O)NC(Sc1ccccc1)C(Cl)(Cl)Cl (centres undefined) | inactive: -5.41%
CC(C)c1ccc(OP(C)(=O)Nc2ccc(SC(F)(F)F)cc2)cc1 (centres undefined) | inactive: -5.67%
Nc1cc(N)c2nonc2c1[N+](=O)[O-] | inactive: -3.92%
Cc1c(NP(C)(=O)Oc2ccc(C(C)C)cc2)c(=O)n(-c2ccccc2)n1C (centres undefined) | inactive: 1.2%
O=[N+]([O-])c1cc([N+](=O)[O-])c(Nc2ccccn2)c([N+](=O)[O-])c1 | active: 80.1%
CC(C)CC(=O)NC(Sc1ccc(Cl)cc1)C(Cl)(Cl)Cl (centres undefined) | inactive: -8.89%
Oc1ccccc1CNc1ccccn1 | inactive: -2.19%
O=C(NC(Sc1ccncn1)C(Cl)(Cl)Cl)c1ccccc1 (centres undefined) | inactive: 0.163%
Cc1c2non([O-])c-2c(C)[n+](=O)[n+]1[O-] | inactive: -2.77%
CP(=O)(Nc1ccccn1)Oc1ccccc1 (centres undefined) | inactive: -8.11%
COc1ccccc1OP(C)(=O)Nc1ccc(C)cc1C (centres undefined) | inactive: -4.05%
CCc1ccc(OP(C)(=O)O)cc1 | inactive: -1.45%
NC(=O)c1cc([N+](=O)[O-])cc([N+](=O)[O-])c1N | inactive: -3.48%
CN(C(=O)Cc1ccc(Cl)c(Cl)c1)[C@H]1CCCC[C@H]1N1CCCC1 | inactive: -1.23%
COc1ccccc1OP(C)(=O)Nc1ccc(Br)cc1 (centres undefined) | inactive: -11.8%

Structure (SMILES) | protection from apoptosis
Cc1ccc(N/C(=N/P(=O)(N2CCOCC2)N2CCOCC2)N2CCOCC2)cc1 | inactive: -1.18%
COc1ccccc1OP(=O)(Nc1ccc(C)cn1)Oc1ccccc1OC | inactive: -6.05%
COc1ccc(OP(C)(=O)Nc2ccccn2)cc1 (centres undefined) | inactive: -13.8%
CN1CCCC(OC(=O)C(c2ccccc2)c2ccccc2)C1 (centres undefined) | inactive: 1.93%
Clc1ccc(Cl)c(NC2=NCC(CBr)S2)c1 (centres undefined) | inactive: -2.63%
Cc1nc2ccc3ccccc3c2o1.O=[N+]([O-])c1cc([N+](=O)[O-])c(O)c([N+](=O)[O-])c1 | inactive: -10.6%
O=[N+]([O-])c1cc([N+](=O)[O-])c(CCN2CCOCC2)c([N+](=O)[O-])c1 | inactive: 7.85%
CCN(N=Nc1nonc1N)c1nonc1N | inactive: -3.15%
Nc1cccc2ccc([As](=O)(O)O)cc12 | inactive: -2.78%
CP(=O)(Nc1ccc(Cl)cc1Cl)Oc1ccccc1 (centres undefined) | inactive: -3.74%
CP(=O)(OCCOc1ccccc1)OCCOc1ccccc1 | inactive: -9.33%
CC(=O)Nc1ccc([As](=O)(O)O)cc1 | inactive: -3.56%
O=C(O)c1ccccc1[As](=O)(O)O | inactive: -0.00228%
O=P(Nc1nc2ccc(Cl)cc2s1)(c1ccccc1)c1ccccc1 | inactive: 25.1%
Cc1cc(C)cc(OP(C)(=O)Nc2cccc(C(F)(F)F)c2)c1 (centres undefined) | inactive: -3.13%
Cc1cc(SC(NC(=O)c2ccc(F)cc2)C(Cl)(Cl)Cl)ncn1 (centres undefined) | inactive: -6.97%
CCOP(=O)(Nc1ccccc1)OCC | inactive: -9.24%
COc1ccccc1OP(C)(=O)Nc1ccc(C)c(C)c1 (centres undefined) | inactive: -8.03%
CN(C(=O)Cc1ccc(Cl)c(Cl)c1)[C@H]1CCCC[C@@H]1N1CCCC1 | inactive: -2.57%
Cc1ccc(NP(=O)(Oc2ccccc2F)Oc2ccccc2F)nc1 | inactive: -6.02%
COc1ccc(OP(C)(=O)Nc2ccccc2Br)cc1 (centres undefined) | inactive: -6.08%
CC(C)(C)C(=O)NC(Sc1ccncn1)C(Cl)(Cl)Cl (centres undefined) | inactive: -14.9%
O=[N+]([O-])c1ncn(CCn2ncnc2[N+](=O)[O-])n1 | inactive: -8.19%
O=C(O)CNc1ccc([As](=O)(O)O)cc1 | inactive: -4.48%
Nc1ccc2c(ccc3cccnc32)n1.O=[N+]([O-])c1cc([N+](=O)[O-])c(O)c([N+](=O)[O-])c1 | inactive: -5.81%

Structure (SMILES) | protection from apoptosis
CCOC(=O)c1ccc(NP(C)(=O)Oc2ccc(Cl)cc2)cc1 (centres undefined) | inactive: 3.28%
O=C(Nc1cc([As](=O)(O)O)ccc1O)c1ccccc1 | inactive: -6.86%
CP(=O)(OC12CC3CC(CC(C3)C1)C2)OC12CC3CC(CC(C3)C1)C2 | inactive: -2.03%
COc1ccccc1OP(C)(=O)Nc1ccccc1Br (centres undefined) | inactive: 2.15%
Nc1ccc([As](=O)(O)c2ccc(N)cc2)cc1 | inactive: -4.53%
CC(C)(C)c1ccc(OP(C)(=O)O)cc1 | inactive: -6.71%
CCN(/C(=N/P(=O)(N1CCOCC1)N1CCOCC1)N1CCOCC1)c1ccc(OC)cc1 | inactive: 0.761%
CP(=O)(Nc1ccc(Cl)cc1)Oc1ccc(F)cc1 (centres undefined) | inactive: -7.91%
CC(C)=N/N=C(\N)N[N+](=O)[O-] | inactive: 1.27%
CN(C)C(=O)c1c([N+](=O)[O-])cc([N+](=O)[O-])cc1[N+](=O)[O-] | inactive: -3%
CN(C)C(=O)OCCc1n(C)cc[n+]1C | inactive: 1.02%
CC1CCN(C(=O)Oc2c(Cl)cc(Cl)c3cccnc23)CC1 | inactive: -6.18%
CCN(CC)CC(O)COC(=O)C(O)(c1ccccc1)C1CCCCC1 (centres undefined) | inactive: 0.339%
COc1ccc(C2=NCC(CBr)S2)cc1 (centres undefined) | inactive: -5.91%
COc1ccc(OP(C)(=O)Nc2ccc(Br)cc2)cc1 (centres undefined) | inactive: -11.1%
CC(=O)N1C2C3N(C(C)=O)C1C1N(C(C)=O)C(C(N1C(C)=O)N3C(C)=O)N2C(C)=O | inactive: -17.3%
O=[N+]([O-])c1cccc2n[nH]nc12 | inactive: 9.42%
COc1ccccc1OP(C)(=O)Nc1c(C)n(C)n(-c2ccccc2)c1=O (centres undefined) | inactive: 3.89%
O=C(OCCCN1CCCC1)C(O)(c1ccccc1)C1CCCCC1 (centres undefined) | inactive: -1.07%
Cc1ccc(NP(=O)(Oc2ccccc2)Oc2ccccc2)nc1 | inactive: 2.83%
CP(=O)(Oc1ccccc1)N1CCOC1=O (centres undefined) | inactive: -12.9%
CCc1ccc(OP(C)(=O)Nc2cccnc2)cc1 (centres undefined) | inactive: 0.392%
O=[N+]([O-])c1cc([N+](=O)[O-])c(CCNc2ccccc2)c([N+](=O)[O-])c1 | inactive: 18.6%
CCc1nc2c(n1)c1c(non1O)c1c2no[n+]1[O-] | inactive: -13.4%
